In paper PMC3799725, “Detection of Active Matriptase Using a Biotinylated Chloromethyl Ketone Peptide” (PLoS ONE, 2013):

Tested on: matriptase (Caco-2 cells)

biotin-Arg-Gln-Arg-Arg-chloromethyl ketone
labeling level at pH 6.0 compared to pH 7.4 (50 µM, 30 min at 37°C (figure 4 lanes 7 and 8)): Higher levels of biotin-RQRR-CMK reactive matriptase was observed when labeling was performed at pH 6.0 as compared to pH 7.4 | amount of matriptase reacting with biotin-RQRR-CMK, 2 min (50 µM, basolateral side, 37°C, 2 min labeling (figure 2A lane 3)): below the detection limit of the assay | level of reactive matriptase compared with NHS-SS-biotin labeling (basolateral plasma membrane of Caco-2 cells): only low levels of biotin-RQRR-CMK-reactive matriptase could be detected
